Reference: patent US7687510B2, “Pyrimidinone derivatives as therapeutic agents against acute and chronic inflammatory, ischaemic and remodelling processes” (Bayer Healthcare AG, priority 2002, dated 2010)

Target: T1, human neutrophil elastase (HNE) (Homo sapiens, UniProt P08246)
T1 construct: purchased SERVA Electrophoresis GmbH, Heidelberg, Germany #20927.01
T1 sequence (P08246 30-267): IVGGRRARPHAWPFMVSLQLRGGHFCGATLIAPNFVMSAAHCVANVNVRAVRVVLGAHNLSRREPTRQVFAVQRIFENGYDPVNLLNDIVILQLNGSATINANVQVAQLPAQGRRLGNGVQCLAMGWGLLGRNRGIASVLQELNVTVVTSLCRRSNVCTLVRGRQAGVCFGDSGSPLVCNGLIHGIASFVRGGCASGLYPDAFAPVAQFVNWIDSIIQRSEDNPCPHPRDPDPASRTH
Test: In vitro inhibition of HNE using a fluorogenic peptide substrate (continuous read-out signal, 384 MTP assay format)
Type: biochemical
Details: substrate MeOSuc-Ala-Ala-Pro-Val-AMC, 37° C.
Method: I. In vitro Enzyme Assays of Human Neutrophil Elastase (HNE)
assay buffer: 0.1 M HEPES-NaOH buffer pH 7.4, 0.5 M NaCl, 0.1% (w/v) bovine serum albumin;
suitable concentration (see below) of substrate in assay buffer;
suitable concentration of test compounds diluted with assay buffer from a 10 mM stock solution in DMSO.
The test solution is prepared by mixing 10 μl of test compound dilution, 20 μl of HNE enzyme dilution (final concentration 8-0.4 μU/ml, routinely 2.1 μU/ml) and 20 μl of substrate dilution (final concentration 1 mM-1 μM, routinely 20 μM), respectively. The solution is incubated for 0-2 hrs at 37° C. (routinely one hour). The florescence of the liberated AMC due to the enzymatic reaction is measured at 37° C. (TECAN spectra fluor plus plate reader). […] IC50 values are determined by RFU-versus-[I] plots. Km and Km(app.) values are determined by Lineweaver-Burk inverted to Ki values by Dixon plots.

Structure (SMILES) | IC50
CC(=O)C1=C(C)N(c2cccc(C(F)(F)F)c2)C(=O)NC1c1ccc(C#N)nc1 (single isomer, unassigned; (+)) [Example 74, (+)-5-{5-Acetyl-6-methyl-2-oxo-1-[3-(trifluoromethyl)phenyl]-1,2,3,4-tetrahydro-4-pyrimidinyl}-2-pyridinecarbonitrile] | 20 nM
CC(=O)C1=C(C)N(c2cccc(C(F)(F)F)c2)C(=O)NC1c1ccc(C#N)nc1 (centres unmarked) [Example 73, 5-{5-Acetyl-6-methyl-2-oxo-1-[3-(trifluoromethyl)phenyl]-1,2,3,4-tetrahydro-4-pyrimidinyl}-2-pyridinecarbonitrile] | 60 nM
